We go through 2 molecules from patent US5432157A, “Chrysospermins, active peptides from apiocrea chrysosperma having a pharmacological effect and a use thereof” (Hoechst Aktiengesellschaft, priority 1993, dated 1995).

One assay has as its system CTLL cells. Description: interleukin 2 control (internal test standard) on CTLL cells. In kind it is cell-based. The procedure:
CTLL cells→IL-2 detection
(§1) 4×10^3 of the abovementioned cells/100 μl+100 μl of supernatant=50%}+50 μl of supernatant=25%} total volume 200 μl per well+25 μl of supernatant=12.5%}+12.5 μl of supernatant=6.25%}
(§2) The plates are incubated for 48 hours and proliferation of the cells is ascertained by incorporation of radioactive tritiated thymidine in analogy with the procedure described under point 5.
(§3) Internal test standard: To check the magnitude of the content of interleukin 2 and 3 in the individual groups, interleukin 2 and interleukin 3 of known concentrations are included in the test as controls.

The subject of the next assay is DA 1 cells. The assay is described as follows: interleukin 3 control (internal test standard) on DA 1 cells. The class given is cell-based. The procedure:
DA 1 cells→IL-3 detection
as §1, §2, §3

Take “Interleukin 2: interleukin 2 of known concentrations included in the test as control”: the Counts with CTLL cells (1.25 μg/ml, 3.125 U/ml) is 42,751; in the assay with CTLL cells (2.5 μg/ml, 6.25 U/ml), 78,836; in the assay on CTLL cells (5 μg/ml, 12.5 U/ml), 183,303; in the assay with CTLL cells (10 μg/ml, 25 U/ml), 225,827; with CTLL cells (20 μg/ml, 50 U/ml), 230,215; in the assay with CTLL cells (40 μg/ml, 100 U/ml) it was 229,583. For the same molecule, the Counts in the assay on CTLL cells (80 μg/ml, 200 U/ml) is 233,430.

B1: Interleukin 3: interleukin 3 of known concentrations included in the test as control (protein, UniProt P08700 20-152, looked up)
Interleukin-3: APMTQTTPLKTSWVNCSNMIDEIITHLKQPPLPLLDFNNLNGEDQDILMENNLRRPNLEAFNRAVKSLQNASAIESILKNLLPCLPLATAAPTRHPIHIKDGDWNEFRRKLTFYLKTLENAQAQQTTLSLAIF
On to B1, for which the Counts is listed as 2,580 with DA 1 cells (0.3 · 2%); 5,305 in the assay with DA 1 cells (0.6 · 125%); 12,102 in the assay with DA 1 cells (1.25%); 24,826 with DA 1 cells (2.5%); 33,018 with DA 1 cells (5%); 38,252 with DA 1 cells (10%). The Counts with DA 1 cells (20%) is recorded as 44,525.
